# Apparent affinities of Ab-95 variants for a coronavirus HR2 peptide

Antigen: PDVDLGDISGINAS, a 14-residue peptide of the SARS-CoV-2 spike HR2 region.

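The starting antibody came from a phage panning campaign against this peptide. Variants in AAYL52 differ from the parent at up to three CDR positions; double and triple changes were sampled at random. The scFvs were displayed on barcoded MATa yeast, the peptide on MATalpha yeast. Pairs that bind mate more often; barcode pairs of the diploids are counted by sequencing. A regression on co-assayed BCL2-family reference pairs converts the normalised counts of each replicate to an apparent Kd. Mating was done three times.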

Parent: Ab-95, a human scFv built as VH, a (GGGGS)3 linker, VL. Only the CDRs of the light chain vary.
VH: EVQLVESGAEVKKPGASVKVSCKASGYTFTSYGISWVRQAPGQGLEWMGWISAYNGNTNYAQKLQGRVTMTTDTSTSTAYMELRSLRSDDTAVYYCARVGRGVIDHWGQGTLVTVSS
VL: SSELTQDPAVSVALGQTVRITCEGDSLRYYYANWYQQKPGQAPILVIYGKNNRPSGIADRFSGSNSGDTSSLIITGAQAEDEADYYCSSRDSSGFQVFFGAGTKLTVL

Substitutions are numbered in sequence along the VL above, starting at 1 (not Kabat).
These are single substitutions, in order of position.
Values are apparent Kd, the geometric mean of the replicates that gave a signal; lower means stronger binding.
Nonspecific signal, from three strains lacking the peptide, appeared in 28% of pairings of library AAYL52, centred on 8.2 µM (5% of these signals below 800 nM); values are not corrected for it. The control count says in how many pairings with the empty strains this scFv gave a signal.
In this assay the parent's reference entry averaged 200 nM; its copy inside this library read 180 nM.

changes,apparent Kd,seen in,signal with controls
P54W,1.4 µM,3/3,1/9
P54D,710 nM,3/3,2/9
P54C,630 nM,3/3,5/9
P54T,310 nM,3/3,5/9
P54G,240 nM,3/3,2/9
P54R,360 nM,3/3,0/9
P54H,2.8 µM,3/3,3/9
S55H,190 nM,3/3,3/9
S55Y,180 nM,3/3,3/9
S55E,28 nM,3/3,2/9
S55F,410 nM,3/3,2/9
S55T,79 nM,3/3,2/9
S55W,230 nM,3/3,2/9
S55N,40 nM,3/3,4/9
S55P,270 nM,3/3,5/9
S55K,220 nM,3/3,3/9
S55G,180 nM,3/3,5/9
S55I,240 nM,3/3,0/9
S55M,85 nM,3/3,5/9
S55R,490 nM,3/3,3/9
S55L,180 nM,3/3,1/9
S55V,280 nM,3/3,2/9
S55D,32 nM,3/3,5/9
S55Q,58 nM,3/3,3/9
S55C,270 nM,3/3,4/9
S55A,74 nM,3/3,1/9
S88Q,270 nM,3/3,2/9
S88R,7.0 µM,2/3,4/9
S88G,390 nM,3/3,2/9
S88F,410 nM,3/3,1/9
S88C,130 nM,3/3,2/9
S88L,9.0 µM,1/3,1/9
S88A,420 nM,3/3,1/9
S88D,260 nM,3/3,0/9
S88I,24 µM,2/3,1/9
S88H,110 nM,3/3,3/9
S88V,5.9 µM,3/3,0/9
S88N,270 nM,3/3,1/9
S88P,250 nM,3/3,0/9
S88T,980 nM,1/3,3/9
S88M,54 nM,3/3,3/9
S88E,67 nM,3/3,2/9
S88Y,230 nM,3/3,2/9
S88W,300 nM,3/3,1/9
S88K,140 nM,3/3,3/9
S89G,140 nM,3/3,1/9

Data: MIT Lincoln Laboratory AlphaSeq set, Engelhart et al. 2022, doi:10.1038/s41597-022-01779-4, as distributed in FLAb.